Experimental data as given in US20240117074A1 (published 2024).

What was measured:
[1] = target: T1, human CEACAM6, recombinant soluble (hCEACAM-6, R&D Systems #3934-CM-050) (human, UniProt P40199 35-320); experiment: ELISA, coated CEACAM family protein
T1 sequence (looked up): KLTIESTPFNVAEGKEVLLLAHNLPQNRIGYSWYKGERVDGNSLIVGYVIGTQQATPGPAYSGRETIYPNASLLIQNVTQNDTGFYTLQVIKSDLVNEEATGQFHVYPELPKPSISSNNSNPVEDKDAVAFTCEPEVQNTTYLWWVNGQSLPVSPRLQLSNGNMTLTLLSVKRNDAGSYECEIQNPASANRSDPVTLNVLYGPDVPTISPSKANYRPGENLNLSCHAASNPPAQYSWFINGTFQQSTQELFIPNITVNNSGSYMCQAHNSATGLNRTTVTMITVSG

[2] = target: T2, CEACAM8, recombinant soluble (CEACAM-8, R&D Systems #9639-CM-050) (UniProt P31997 35-320, limits assumed); experiment: ELISA, coated CEACAM family protein
T2 sequence (looked up): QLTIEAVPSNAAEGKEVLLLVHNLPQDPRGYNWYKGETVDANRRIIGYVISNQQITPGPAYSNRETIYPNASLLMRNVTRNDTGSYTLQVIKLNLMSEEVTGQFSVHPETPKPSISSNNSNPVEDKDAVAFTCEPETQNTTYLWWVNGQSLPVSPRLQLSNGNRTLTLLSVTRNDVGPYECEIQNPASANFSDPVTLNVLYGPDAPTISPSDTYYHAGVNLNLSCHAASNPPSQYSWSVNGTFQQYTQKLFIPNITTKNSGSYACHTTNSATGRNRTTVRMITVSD

B1: Multi42 (bispecific antibody, human IgG1, kappa, L234A L235A)
chain 1: not shown
light: EIVLTQSPGTLSLSPGERATLSCRASQSVSSSYLAWYQEKPGQAPRLLIYGASSRATGIPDRFSGSGSGTDFTLTISRLEPEDFAVYYCQQYWYPLTFGQGTKLEIKRTVAAPSVFIFPPSDEQLKSGTASVVCYLNNFYPREAKVQWKVDNALQSGNSQESVTEQDSKDSTYSLWSTLTLSKADYEKHKVYACEVTHQGLSSPVTKSFNRGEC
chain 2: EVQLLESGGGLVQPGGSLRLSCAASGFTFSTYGMHWVREAPGKGLEWLSYISGGSSYIFYADSVKGRFTISRDNSKNTLYLQMNSLRAEDTAVYYCARILRGGSGMDLWGQGTLVTVSSASTKGPSVFPLAPSSKSTSGGTAALGCLVKDYFPEPVTVSWNSGALTSGVHTFPAVLQSSGLYSLTSVVEVPSSSLGTQTYICNVNHKPSNTKVDKKVEPKSC
B1: no binding [1]; no binding [2].
